Source: the Kinase Knowledgebase extract (Sharma et al. 2016)

The chains behind the UniProt entries cited, without tags or fusion partners.
UniProt Q16539, whole entry, looked up: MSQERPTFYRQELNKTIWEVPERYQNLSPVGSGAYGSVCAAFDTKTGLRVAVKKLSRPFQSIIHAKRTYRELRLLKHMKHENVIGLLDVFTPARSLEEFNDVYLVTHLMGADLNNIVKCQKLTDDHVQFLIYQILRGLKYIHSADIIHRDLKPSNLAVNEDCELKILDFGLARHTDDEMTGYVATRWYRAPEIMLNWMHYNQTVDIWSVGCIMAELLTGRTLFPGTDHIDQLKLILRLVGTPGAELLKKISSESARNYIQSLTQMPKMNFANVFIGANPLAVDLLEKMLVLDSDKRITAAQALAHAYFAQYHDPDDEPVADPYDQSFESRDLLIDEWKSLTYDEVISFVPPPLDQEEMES

Biological target: MAPK14 (human) (UniProt Q16539)
Assay: Inhibition of MAPK14 Kinase Activity

In the case of `O=c1c(Oc2ccc(F)cc2F)cc2cnc(NC3CCOCC3)nc2n1CCCO`, the IC50 is reported as 0.001 to 0.1 µM.
